According to ChEMBL document CHEMBL4513216, “Probing the Open Global Health Chemical Diversity Library for Multistage-Active Starting Points for Next-Generation Antimalarials” (ACS Infect Dis, 2020):

System: HepG2
Test: Toxicity liver stage against HepG2, at 10uM
Assay type: cell-based
Design: test concentration 10 uM, cell line HepG2-A16-CD81EGFP
Conditions: human, hepg2, 10 µM
Summary of the method: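 Uninfected HepG2-A16-CD81EGFP cells, 3 × 10^3 per well, 1536-well, plated on prespotted compound at 10 μM final, parasite-free screening media added to match infected plates; puromycin 10 μM positive, DMSO 0.5% negative; run in parallel with 48 h PbLuc assay at 37 °C, 5% CO2; viability by CellTiter-Glo luminescence, normalized to controls.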

Structure (SMILES)	INHIBITION
Cc1cccc(NC2CCN(Cc3nnc(C(C)C)o3)CC2)c1	-9.35%
COc1ccc(NC2CCN(C)CC2)cc1OC	-0.628%
Cc1ccc(NC2CCN(C(C)c3nnc(C)o3)CC2)cc1 (stereo not given)	2.65%
CCN1CCC(Nc2ccc(OC)c(OC)c2)CC1	-2.46%
Cc1ccccc1NC1CCNCC1	1.97%

This is a selection: effects in other tests are not listed, and their absence says nothing.
